# From patent US20250353852A1, “COMPOUNDS AND COMPOSITIONS THAT INHIBIT PIKFYVE” (Kineta, Inc., priority 2021, published 2025)
# The chains behind the UniProt entries cited, without tags or fusion partners.
# UniProt Q9Y2I7, whole entry S696N/L932S/Q995L/T998S/S1033A/Q1183K: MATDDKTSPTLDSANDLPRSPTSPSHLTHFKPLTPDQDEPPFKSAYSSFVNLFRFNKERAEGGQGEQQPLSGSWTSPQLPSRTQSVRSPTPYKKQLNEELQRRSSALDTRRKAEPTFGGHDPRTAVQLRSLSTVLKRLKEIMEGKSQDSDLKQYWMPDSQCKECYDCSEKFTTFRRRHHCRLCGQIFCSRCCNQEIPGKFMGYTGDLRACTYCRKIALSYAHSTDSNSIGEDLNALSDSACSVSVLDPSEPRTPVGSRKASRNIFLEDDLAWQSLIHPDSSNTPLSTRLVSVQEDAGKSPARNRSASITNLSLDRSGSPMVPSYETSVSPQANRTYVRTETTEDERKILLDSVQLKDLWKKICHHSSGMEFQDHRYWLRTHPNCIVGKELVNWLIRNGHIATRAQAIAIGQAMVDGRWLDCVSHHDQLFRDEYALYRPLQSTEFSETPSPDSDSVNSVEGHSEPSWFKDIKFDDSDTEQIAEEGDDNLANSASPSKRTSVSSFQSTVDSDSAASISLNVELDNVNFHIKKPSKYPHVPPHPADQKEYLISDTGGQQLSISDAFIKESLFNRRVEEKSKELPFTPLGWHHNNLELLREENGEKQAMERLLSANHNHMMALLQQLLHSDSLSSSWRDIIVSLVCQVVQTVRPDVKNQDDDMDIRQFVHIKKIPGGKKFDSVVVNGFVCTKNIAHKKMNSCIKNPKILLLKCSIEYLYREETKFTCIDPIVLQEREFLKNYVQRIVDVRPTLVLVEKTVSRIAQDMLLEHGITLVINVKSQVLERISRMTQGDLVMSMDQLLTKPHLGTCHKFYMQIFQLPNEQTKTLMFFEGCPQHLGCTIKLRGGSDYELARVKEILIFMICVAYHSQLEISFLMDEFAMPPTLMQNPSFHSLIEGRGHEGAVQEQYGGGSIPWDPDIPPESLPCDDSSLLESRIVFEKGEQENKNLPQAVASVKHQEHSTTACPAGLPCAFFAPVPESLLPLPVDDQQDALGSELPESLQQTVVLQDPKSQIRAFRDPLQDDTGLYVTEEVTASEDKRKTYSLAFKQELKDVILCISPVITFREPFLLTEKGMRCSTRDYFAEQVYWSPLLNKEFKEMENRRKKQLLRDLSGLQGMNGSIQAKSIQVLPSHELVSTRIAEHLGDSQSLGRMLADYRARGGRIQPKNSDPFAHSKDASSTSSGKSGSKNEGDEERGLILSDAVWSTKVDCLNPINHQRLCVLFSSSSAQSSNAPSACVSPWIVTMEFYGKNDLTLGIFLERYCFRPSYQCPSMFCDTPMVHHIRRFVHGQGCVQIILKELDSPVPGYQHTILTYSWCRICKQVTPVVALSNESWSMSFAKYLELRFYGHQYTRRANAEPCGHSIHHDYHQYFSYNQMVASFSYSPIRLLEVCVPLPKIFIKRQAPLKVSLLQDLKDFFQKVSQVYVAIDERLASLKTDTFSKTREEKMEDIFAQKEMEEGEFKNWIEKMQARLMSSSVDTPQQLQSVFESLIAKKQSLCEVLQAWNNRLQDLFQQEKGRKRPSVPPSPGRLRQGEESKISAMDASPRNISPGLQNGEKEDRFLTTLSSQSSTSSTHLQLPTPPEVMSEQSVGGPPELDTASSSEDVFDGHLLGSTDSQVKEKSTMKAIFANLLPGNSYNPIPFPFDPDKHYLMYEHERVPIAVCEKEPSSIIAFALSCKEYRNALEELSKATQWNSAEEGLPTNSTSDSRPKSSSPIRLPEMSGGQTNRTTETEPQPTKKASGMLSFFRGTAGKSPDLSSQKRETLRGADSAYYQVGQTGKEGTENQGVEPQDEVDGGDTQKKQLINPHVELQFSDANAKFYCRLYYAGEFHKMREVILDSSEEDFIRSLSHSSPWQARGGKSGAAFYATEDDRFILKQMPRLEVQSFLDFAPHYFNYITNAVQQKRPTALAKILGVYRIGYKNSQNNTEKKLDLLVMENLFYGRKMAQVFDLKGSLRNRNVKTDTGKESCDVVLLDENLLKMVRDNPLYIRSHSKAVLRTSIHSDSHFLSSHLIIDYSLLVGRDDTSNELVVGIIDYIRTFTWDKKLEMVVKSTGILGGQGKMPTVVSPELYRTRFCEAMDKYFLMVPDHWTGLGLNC
# Molecular target: full-length human PIKFYVE (Homo sapiens (Human), UniProt Q9Y2I7, L932S/Q1183K/Q995L/S1033A/S696N/T998S)
# Experiment: PIKfyve biochemical assay (ADP-Glo Kinase assay, Carna Biosciences)
# Conditions: read-out: PIKFyve IC50; class symbols
structure (smiles),measurement,value
c1cc(-c2cc3nc(-n4ncc5c4COCC5)cc(N4CCOCC4)n3n2)ccn1,IC50,100 to 1000 nM
